Results as given in article PMC2131780, “A Tale of Switched Functions: From Cyclooxygenase Inhibition to M-Channel Modulation in New Diphenylamine Derivatives” (PLoS ONE, 2007).
pEC50, pIC50: −log10 of the molar value. Read-outs that look alike come from different tables or passages of the source.

By UniProt entry, the sequences of proteins in these tests, tags left out. Where a name states a change or a piece, a line headed by the entry shows the natural chain unless it says otherwise. Residues count along the entry.
UniProt O43525, whole entry: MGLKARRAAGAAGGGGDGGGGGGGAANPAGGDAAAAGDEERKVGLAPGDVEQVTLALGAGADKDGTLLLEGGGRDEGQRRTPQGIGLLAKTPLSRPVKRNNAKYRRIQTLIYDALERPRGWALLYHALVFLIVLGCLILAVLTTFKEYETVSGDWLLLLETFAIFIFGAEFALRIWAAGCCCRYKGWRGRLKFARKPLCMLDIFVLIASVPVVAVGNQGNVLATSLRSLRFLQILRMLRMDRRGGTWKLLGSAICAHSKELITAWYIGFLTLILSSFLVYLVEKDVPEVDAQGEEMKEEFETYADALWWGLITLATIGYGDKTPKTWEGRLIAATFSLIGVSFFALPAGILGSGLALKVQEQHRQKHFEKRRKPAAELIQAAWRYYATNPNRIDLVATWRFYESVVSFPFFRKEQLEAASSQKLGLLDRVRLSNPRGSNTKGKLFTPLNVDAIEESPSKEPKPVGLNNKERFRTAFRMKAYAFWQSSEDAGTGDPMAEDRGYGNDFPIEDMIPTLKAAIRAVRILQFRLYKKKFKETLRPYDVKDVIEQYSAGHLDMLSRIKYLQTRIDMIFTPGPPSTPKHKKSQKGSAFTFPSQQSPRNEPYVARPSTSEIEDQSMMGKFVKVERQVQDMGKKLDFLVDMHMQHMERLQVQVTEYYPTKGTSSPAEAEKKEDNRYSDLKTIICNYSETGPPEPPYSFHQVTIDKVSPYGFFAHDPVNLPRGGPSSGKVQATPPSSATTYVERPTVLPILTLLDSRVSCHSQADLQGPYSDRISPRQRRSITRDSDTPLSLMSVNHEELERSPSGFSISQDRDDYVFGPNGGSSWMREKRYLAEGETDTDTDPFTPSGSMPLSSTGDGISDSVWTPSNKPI
UniProt O43525, whole entry A315T: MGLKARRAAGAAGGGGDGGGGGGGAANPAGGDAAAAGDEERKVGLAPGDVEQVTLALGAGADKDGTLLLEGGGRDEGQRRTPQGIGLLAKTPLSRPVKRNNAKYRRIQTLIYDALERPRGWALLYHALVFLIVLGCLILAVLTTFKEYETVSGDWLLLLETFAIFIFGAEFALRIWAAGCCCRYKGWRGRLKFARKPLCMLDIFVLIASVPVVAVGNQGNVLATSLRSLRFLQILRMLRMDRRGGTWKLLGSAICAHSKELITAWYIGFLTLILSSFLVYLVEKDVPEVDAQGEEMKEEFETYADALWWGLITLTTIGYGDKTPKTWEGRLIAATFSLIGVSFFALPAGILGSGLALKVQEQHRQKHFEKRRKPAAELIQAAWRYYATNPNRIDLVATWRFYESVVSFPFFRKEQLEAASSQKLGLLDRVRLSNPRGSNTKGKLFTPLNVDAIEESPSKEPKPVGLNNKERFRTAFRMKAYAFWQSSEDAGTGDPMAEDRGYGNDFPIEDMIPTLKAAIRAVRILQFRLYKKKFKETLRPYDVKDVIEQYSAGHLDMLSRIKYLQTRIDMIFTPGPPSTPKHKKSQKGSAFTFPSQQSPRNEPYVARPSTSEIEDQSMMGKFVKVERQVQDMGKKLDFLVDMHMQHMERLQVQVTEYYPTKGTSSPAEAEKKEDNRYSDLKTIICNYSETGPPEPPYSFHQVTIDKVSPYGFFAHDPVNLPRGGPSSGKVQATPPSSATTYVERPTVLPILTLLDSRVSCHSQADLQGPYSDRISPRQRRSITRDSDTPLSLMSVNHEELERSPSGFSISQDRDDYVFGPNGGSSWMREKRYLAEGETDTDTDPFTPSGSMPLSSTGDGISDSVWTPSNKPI
UniProt O43526, whole entry: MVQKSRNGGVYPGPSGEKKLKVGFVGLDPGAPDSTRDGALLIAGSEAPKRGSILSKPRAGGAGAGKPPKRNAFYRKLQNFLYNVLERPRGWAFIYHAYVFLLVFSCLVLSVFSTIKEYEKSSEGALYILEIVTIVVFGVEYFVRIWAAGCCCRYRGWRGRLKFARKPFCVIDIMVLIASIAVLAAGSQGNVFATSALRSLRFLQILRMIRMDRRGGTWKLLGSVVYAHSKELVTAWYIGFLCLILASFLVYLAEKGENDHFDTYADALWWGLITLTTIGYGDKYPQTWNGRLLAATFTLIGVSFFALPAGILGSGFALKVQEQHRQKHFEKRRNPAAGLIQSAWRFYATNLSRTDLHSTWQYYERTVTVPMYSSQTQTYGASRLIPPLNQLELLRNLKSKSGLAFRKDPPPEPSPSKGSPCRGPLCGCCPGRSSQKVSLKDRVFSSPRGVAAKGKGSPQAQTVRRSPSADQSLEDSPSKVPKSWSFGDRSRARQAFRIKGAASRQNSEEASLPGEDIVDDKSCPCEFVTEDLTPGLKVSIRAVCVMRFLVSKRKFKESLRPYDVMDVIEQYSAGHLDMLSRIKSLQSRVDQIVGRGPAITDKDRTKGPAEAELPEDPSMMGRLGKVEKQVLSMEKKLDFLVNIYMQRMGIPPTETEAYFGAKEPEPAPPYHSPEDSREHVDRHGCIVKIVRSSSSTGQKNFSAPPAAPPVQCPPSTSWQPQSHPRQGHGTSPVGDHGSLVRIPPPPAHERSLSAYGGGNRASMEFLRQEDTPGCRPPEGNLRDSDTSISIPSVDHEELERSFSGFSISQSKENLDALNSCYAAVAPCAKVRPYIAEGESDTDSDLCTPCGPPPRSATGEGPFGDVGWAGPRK
UniProt Q12809, whole entry: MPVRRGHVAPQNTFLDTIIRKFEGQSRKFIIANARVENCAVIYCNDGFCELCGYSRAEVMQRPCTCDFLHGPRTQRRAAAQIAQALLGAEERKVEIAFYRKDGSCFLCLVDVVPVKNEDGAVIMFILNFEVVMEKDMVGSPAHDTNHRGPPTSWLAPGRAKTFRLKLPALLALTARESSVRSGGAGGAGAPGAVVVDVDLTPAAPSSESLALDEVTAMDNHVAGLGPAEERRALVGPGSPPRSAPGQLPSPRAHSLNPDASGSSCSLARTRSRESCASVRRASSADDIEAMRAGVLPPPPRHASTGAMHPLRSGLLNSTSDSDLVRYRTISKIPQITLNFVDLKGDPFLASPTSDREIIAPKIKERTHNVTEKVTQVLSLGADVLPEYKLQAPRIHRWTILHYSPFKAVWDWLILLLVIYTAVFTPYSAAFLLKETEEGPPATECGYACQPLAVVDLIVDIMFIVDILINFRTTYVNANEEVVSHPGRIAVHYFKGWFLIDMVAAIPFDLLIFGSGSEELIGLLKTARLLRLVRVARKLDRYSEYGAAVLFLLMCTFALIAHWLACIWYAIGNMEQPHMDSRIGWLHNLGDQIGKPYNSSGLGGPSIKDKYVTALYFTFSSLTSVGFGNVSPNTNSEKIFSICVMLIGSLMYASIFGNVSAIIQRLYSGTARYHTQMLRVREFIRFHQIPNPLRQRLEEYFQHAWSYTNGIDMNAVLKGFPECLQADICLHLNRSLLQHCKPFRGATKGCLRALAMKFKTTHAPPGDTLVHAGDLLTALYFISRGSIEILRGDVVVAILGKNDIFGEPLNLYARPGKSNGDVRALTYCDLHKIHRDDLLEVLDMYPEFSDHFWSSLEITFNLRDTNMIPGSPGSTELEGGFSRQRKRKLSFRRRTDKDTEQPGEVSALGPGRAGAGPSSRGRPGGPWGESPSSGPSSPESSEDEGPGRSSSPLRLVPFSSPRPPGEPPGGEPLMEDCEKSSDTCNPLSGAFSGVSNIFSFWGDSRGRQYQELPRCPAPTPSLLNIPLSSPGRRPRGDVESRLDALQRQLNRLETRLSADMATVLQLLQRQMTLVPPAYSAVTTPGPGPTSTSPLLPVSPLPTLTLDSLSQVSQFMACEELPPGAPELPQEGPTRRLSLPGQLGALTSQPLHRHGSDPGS
UniProt Q14721, whole entry: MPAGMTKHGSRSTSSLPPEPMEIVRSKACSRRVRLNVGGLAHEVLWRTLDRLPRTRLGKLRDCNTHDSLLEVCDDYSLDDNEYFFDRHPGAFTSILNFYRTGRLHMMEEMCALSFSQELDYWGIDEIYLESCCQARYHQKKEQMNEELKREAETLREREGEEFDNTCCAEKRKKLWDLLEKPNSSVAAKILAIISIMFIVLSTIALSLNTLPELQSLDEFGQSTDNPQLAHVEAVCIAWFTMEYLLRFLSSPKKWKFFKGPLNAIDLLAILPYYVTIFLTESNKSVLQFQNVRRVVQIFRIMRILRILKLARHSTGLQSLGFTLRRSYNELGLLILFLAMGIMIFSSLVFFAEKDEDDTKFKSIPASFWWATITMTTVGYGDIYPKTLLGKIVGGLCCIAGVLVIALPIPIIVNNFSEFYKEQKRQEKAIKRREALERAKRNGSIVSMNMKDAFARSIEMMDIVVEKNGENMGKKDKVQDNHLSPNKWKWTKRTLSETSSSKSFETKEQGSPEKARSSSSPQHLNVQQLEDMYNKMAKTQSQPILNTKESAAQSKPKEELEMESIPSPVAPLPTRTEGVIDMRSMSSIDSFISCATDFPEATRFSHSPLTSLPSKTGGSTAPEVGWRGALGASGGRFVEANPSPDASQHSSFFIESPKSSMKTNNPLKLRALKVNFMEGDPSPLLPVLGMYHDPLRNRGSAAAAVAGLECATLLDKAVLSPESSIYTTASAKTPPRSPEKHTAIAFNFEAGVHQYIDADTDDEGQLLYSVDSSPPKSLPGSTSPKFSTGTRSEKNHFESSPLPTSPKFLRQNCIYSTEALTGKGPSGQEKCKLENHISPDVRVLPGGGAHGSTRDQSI
UniProt P56696, whole entry: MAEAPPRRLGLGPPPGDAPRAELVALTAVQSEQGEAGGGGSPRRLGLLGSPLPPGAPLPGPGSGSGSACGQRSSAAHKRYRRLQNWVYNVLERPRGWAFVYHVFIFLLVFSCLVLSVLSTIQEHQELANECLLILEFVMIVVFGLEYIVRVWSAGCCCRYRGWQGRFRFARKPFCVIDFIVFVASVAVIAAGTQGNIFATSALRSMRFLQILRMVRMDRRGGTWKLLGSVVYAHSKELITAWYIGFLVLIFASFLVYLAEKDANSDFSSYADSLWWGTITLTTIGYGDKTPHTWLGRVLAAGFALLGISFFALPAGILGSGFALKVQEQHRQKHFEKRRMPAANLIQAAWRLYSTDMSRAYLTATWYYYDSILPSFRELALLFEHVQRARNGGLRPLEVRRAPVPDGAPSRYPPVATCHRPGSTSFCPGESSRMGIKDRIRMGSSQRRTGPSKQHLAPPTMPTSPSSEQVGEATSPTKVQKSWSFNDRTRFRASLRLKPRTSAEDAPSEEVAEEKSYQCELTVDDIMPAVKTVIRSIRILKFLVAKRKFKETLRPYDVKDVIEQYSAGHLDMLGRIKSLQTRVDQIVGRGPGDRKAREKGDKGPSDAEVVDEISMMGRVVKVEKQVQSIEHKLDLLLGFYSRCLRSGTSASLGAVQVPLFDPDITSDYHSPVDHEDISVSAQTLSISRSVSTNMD
UniProt P05979, 25-600 limits assumed: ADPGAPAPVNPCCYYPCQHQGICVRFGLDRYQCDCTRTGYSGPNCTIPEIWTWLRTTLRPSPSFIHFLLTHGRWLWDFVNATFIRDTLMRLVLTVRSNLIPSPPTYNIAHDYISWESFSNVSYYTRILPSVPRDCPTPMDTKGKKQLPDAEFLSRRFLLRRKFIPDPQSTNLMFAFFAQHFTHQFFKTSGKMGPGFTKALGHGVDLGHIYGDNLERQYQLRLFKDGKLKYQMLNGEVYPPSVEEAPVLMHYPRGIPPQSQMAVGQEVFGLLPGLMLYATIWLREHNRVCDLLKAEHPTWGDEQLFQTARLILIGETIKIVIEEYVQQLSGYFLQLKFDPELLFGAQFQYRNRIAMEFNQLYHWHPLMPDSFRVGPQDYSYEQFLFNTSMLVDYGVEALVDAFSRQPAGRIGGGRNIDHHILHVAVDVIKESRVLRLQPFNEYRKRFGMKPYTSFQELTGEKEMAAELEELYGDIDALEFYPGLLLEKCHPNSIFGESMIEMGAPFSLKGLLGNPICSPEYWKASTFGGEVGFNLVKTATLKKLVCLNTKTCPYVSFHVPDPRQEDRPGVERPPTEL
UniProt P35354, 18-604 limits assumed: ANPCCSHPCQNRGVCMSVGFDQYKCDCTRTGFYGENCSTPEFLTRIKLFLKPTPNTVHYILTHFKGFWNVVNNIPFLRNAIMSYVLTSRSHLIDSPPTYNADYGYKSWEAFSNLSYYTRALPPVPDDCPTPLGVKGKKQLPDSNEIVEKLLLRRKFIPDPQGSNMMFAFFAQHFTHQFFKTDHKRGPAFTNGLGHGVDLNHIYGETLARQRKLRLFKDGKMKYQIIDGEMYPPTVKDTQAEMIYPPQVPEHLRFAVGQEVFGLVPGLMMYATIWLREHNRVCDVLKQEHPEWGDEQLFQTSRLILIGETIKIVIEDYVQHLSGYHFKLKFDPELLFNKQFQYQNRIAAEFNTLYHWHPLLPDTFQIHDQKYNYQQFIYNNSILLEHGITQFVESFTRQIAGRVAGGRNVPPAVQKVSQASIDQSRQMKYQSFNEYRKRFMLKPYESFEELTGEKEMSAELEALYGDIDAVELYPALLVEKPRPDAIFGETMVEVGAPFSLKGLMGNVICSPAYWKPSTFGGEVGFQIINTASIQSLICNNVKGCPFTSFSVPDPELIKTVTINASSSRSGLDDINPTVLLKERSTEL

Legend:
[1] = molecular target: Kv7.2/3 K+ channels (M-channels) (Homo sapiens, UniProt O43525+O43526); assay: Whole-cell patch-clamp of recombinant Kv7.2/3 channels in CHO cells; format: cell-based
[2] = system: primary hippocampal neurons (glutamate and GABA release); assay: Spontaneous and miniature post-synaptic currents in cultured hippocampal neurons; settings: 25 µM; not shown
[3] = system: rat DRG neurons; assay: Current-clamp recording of cultured DRG neurons; settings: for rheobase current to generate a single spike, DRG neurons: 2 ms injection
[4] = molecular target: Kv11.1 or hERG (Homo sapiens, UniProt Q12809); assay: Kv channel specificity, Xenopus oocytes; settings: 50 µM
[5] = molecular target: Kv 2.1 (Homo sapiens, UniProt Q14721); assay: Kv channel specificity, Xenopus oocytes; settings: 50 µM
[6] = molecular target: Kv 4.3 (Homo sapiens, UniProt Q9UK17); assay: Kv channel specificity, Xenopus oocytes; settings: 50 µM
[7] = molecular target: Kv 7.4 (Homo sapiens, UniProt P56696); assay: Kv channel specificity, Xenopus oocytes
[8] = molecular target: Kv 7.1 (Homo sapiens, UniProt P51787); assay: Kv channel specificity, Xenopus oocytes
[9] = molecular target: Kv7.2 (Homo sapiens, UniProt O43526); assay: Kv channel specificity, Xenopus oocytes
[10] = system: COX enzymes (D122 mouse Lewis lung carcinoma cells); assay: COX inhibition, PGE2 production in D122 cells
[11] = system: COX enzymes (CT26 mouse colon adenocarcinoma cells); assay: COX inhibition, PGE2 production in CT26 cells; settings: for IC50: read-out: COX inhibition (IC50, µM) CT26, PGE2 production, CT26 cells, average of two experiments in triplicate
[12] = molecular target: Kv7.3 mutant A315T (Homo sapiens, UniProt O43525, A315T); assay: Kv7.3 mutant A315T activation
[13] = molecular target: purified ovine COX-1 (Ovis aries, UniProt P05979); assay: COX inhibitor screening assay, purified COX-1; format: biochemical; settings: 1 µM, n = 3
[14] = molecular target: human recombinant COX-2 (Homo sapiens, UniProt P35354); assay: COX inhibitor screening assay, recombinant COX-2; format: biochemical; settings: 1 µM, n = 3
[15] = read-out: COX inhibition (IC50, µM) D122, average of two experiments in triplicate

O=C(Cc1cc([N+](=O)[O-])cc([N+](=O)[O-])c1Nc1c(Cl)cc([N+](=O)[O-])cc1Cl)NCCO
left-shift of Kv7.2/3 activation curve ([1]; 10 µM): −13 mV | fold increase in Kv7.2/3 current amplitude ([1]; 25 µM, at −50 mV, n = 5): 9.4±1.2 fold | left-shift of Kv7.2/3 activation curve ([1]; 100 µM): −31 mV | effect on amplitude of mEPSCs and mIPSCs [2]: did not affect | hyperpolarization of resting membrane potential, DRG neurons ([3]; 25 µM): −9.0±1.9 mV | resting membrane potential of DRG neurons after exposure ([3]; 25 µM): −65.0±3.4 mV | rheobase current to generate a single spike, DRG neurons ([3]; 25 µM): 300±55 pA | number of evoked action potentials, DRG neurons ([3]; 25 µM, depolarizing current for 400 ms): 0.9±0.1 | effect on current amplitude of Kv11.1 (hERG) [4]: did not affect | Fold current amplitude ([4]; −10 mV, Xenopus oocytes): 0.9±0.08 fold | effect on current amplitude of Kv2.1 [5]: did not affect | effect on current amplitude of Kv4.3 [6]: did not affect | Fold current amplitude ([6]; +30 mV, Xenopus oocytes): 1.0±0.07 fold | opener activity on Kv7.4 [7]: not | opener activity on Kv7.1 [8]: not | opener activity on Kv7.2 [9]: opener | IC50 [10, 15]: > 50 µM | IC50 [11]: > 50 µM | activation of Kv7.3 mutant A315T [12]: activate

O=C(Cc1ccccc1Nc1c(Cl)cccc1Cl)NCCOCCO
pEC50 ([1]; read-out: M-channel opener potency EC50, concentration-dependent left-shift ΔV50, sigmoidal fit): 5.15 | IC50 [10, 15]: 30 µM | IC50 [11]: 40 µM | pIC50 ([11]; read-out: COX inhibition IC50, in CT26 and D122 cells): < 4.30

NCCOCCOC(=O)Cc1ccccc1Nc1c(Cl)cccc1Cl
inhibition of the purified ovine COX-1 enzyme ([13]; tested form: HCl): 59±1% | depolarization of DRG membrane potential (ΔV) ([3]; 1 µM, within 2 min, tested form: HCl): +7±1 mV | rheobase current to generate a single spike, DRG neurons ([3]; 1 µM, n = 6, tested form: HCl): 347±44 pA | decrease in rheobase current, DRG neurons ([3]; 1 µM, tested form: HCl): about 300 pA | number of evoked spikes, DRG neurons ([3]; 1 µM, ∼10–20 pA for 400 ms, n = 5, tested form: HCl): 12±2 | IC50 ([10]; read-out: COX inhibition (IC50, µM) D122, average of two experiments in triplicate, tested form: HCl): 0.01 µM | IC50 ([11]; tested form: HCl): 0.001 µM | inhibition of the human recombinant COX-2 enzyme ([14]; tested form: HCl): 83±1%

Cc1cccc(Nc2ccccc2C(=O)NCCOCCO)c1C
IC50 [10, 15]: 5 µM | IC50 [11]: 20 µM

O=C(NCCOCCO)c1ccccc1Nc1cccc(C(F)(F)F)c1
M-channels (Kv7.2/Kv7.3) effect (opener / blocker / inactive) ([1]; Kv7.2 and Kv7.3 coexpressed in CHO cells): opener | IC50 [10, 15]: 50 µM | IC50 [11]: 20 µM

O=C(Cc1ccccc1Nc1c(Cl)cccc1Cl)OCCOCCO
inhibition of the purified ovine COX-1 enzyme [13]: 58±1% | IC50 [10, 15]: 0.003 µM | IC50 [11]: 0.015 µM | inhibition of the human recombinant COX-2 enzyme [14]: 85±1%
